Laboratory results from patent US10358446B2, “Bruton's tyrosine kinase inhibitors” (Zibo Biopolar Changsheng Pharmaceutical Co. Ltd., priority 2015, dated 2019).

Protein sequences, listed by entry. Tags and fused reporters are not part of them.
UniProt P51451, whole entry: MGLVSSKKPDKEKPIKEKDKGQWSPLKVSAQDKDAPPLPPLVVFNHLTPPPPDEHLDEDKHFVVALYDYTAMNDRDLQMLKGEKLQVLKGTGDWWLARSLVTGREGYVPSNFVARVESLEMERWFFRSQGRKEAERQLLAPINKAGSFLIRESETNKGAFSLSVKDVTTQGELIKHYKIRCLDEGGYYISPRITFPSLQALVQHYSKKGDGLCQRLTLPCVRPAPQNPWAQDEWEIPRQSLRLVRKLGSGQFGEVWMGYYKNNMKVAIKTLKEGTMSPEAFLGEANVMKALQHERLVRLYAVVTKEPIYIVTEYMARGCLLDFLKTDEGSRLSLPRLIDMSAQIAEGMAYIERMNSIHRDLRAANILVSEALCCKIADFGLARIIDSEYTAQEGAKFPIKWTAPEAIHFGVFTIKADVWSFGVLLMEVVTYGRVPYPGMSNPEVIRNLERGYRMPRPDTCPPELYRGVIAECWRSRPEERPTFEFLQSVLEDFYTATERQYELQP
UniProt P07948, whole entry: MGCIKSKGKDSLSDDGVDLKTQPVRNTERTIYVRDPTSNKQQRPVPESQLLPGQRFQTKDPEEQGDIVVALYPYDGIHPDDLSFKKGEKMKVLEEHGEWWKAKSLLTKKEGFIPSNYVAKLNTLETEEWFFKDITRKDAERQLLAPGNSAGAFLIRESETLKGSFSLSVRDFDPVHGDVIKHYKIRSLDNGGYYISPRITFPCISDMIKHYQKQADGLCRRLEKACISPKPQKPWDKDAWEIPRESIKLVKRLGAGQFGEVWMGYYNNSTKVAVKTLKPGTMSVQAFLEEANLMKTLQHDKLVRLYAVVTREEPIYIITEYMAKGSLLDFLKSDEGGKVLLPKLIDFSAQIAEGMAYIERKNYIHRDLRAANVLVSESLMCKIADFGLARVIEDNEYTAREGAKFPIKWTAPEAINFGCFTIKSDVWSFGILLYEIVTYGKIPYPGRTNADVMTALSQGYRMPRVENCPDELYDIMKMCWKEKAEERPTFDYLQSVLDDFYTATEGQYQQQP

Columns and labels:
BLK = BLK (Homo sapiens (Human), UniProt P51451); test: BLK kinase assay (HTRF); details: read-out: BLK IC50; [ATP]=20 μM, BLK=0.6 nM
LYN = LYN (Homo sapiens (Human), UniProt P07948); test: LYN kinase assay (HTRF); details: read-out: LYN IC50; [ATP]=20 μM, LYN=0.12 nM

Which IC50 (BLK) does the source give for `C=CC(=O)Nc1cccc(-n2c(=O)n(-c3ccc(Oc4ccccc4)cc3)c3cnccc32)c1` here?
Its IC50 is 100 to 1000 nM.

What about the IC50 (LYN) of the same compound?
Its IC50 is over 10000 nM.
